Literature values, collected in paper PMC3402085 (ACS medicinal chemistry letters, 2012).

Test system: ALS
Details: FDA-approved drug for ALS; cited from earlier work

## Nc1nc2ccc(OC(F)(F)F)cc2s1 [riluzole]
  extension of survival: 2–3 months
